Test results from the NIST ThermoML archive (doi:10.1016/j.jct.2016.07.017).

Test: activity coefficient (dimensionless); of the first substance listed, at infinite dilution; xn = mol fraction of the nth substance listed
Settings: 101.33 kPa, Liquid, Chromatography, x1 = 0

CCCCOCCCC [dibutyl ether] + CC[N+](C)(CC)CCOC.O=S(=O)([N-]S(=O)(=O)C(F)(F)F)C(F)(F)F
activity coefficient (318.15 K): 15.1 ± 1.3 | activity coefficient (328.15 K): 14.2 ± 1.2 | activity coefficient (338.15 K): 13.4 ± 1.2 | activity coefficient (348.15 K): 12.6 ± 1.1 | activity coefficient (358.15 K): 12 ± 1

± gives the expanded uncertainty stated by the source.
